Source: patent publication EP0514133A1, “Benzodiazepine derivatives, compositions containing them and their use in therapy” (priority 1991, dated 1992)
pIC50: −log10 of the molar value.

By UniProt entry, the sequences of proteins in these tests, tags left out.
UniProt P30551, whole entry: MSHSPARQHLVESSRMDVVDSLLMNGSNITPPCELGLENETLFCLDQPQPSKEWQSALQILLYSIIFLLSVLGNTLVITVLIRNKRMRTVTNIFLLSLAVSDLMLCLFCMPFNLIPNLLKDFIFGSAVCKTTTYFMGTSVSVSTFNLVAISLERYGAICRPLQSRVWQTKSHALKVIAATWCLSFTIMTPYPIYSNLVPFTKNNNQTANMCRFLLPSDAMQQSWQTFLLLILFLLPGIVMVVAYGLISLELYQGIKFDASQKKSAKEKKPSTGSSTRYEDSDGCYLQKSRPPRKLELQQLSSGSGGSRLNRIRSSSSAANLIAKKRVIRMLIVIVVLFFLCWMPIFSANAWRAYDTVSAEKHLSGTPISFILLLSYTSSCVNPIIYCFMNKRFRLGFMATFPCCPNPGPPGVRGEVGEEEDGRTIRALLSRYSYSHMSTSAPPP

Molecular target: T1, CCK receptor (pancreas) (Rattus norvegicus, UniProt P30551)
T1 construct: The whole pancreas was dissected free of fat tissue and was homogenized; from tissue; host or cells: rat pancreas membrane homogenate
Test: biochemical
Assay type: binding
Details: IC50 ^125I-CCK Pancreas, rat pancreas membranes, 50 pM 125I-CCK-8, 25°C 2 hours
Experimental: CCK-8 sulphated was radiolabelled with ¹²⁵I-Bolton Hunter reagent (2000 Ci/mmole). Receptor binding was performed according to Chang and Lotti (Proc. Natl. Acad. Sci. 83, 4923-4926, 1986) with minor modifications.
Male Sprague-Dawley rats (150-200g) were sacrificed by decapitation. The whole pancreas was dissected free of fat tissue and was homogenized in 25 volumes of ice-cold 10 mM N-2-hydroxyethyl-piperazine-N′-2-ethane sulphonic acid (HEPES) buffer with 0.1% soya bean trypsin inhibitor (pH 7.4 at 25°C) with a Kinematica Polytron. The homogenates were centrifuged at 47,800 g for 10 min. Pellets were resuspended in 10 volumes of binding assay buffer (20mM (HEPES)), 1mM ethylene glycol-bis-(β-aminoethylether-N,N′-tetraacetic acid) (EGTA), 5mM MgCl₂, 150 mM NaCl, bacitracin 0.25 mg/ml, soya bean trypsin inhibitor 0.1 mg/ml, and bovine serum albumin 2 mg/ml pH 6.5 at 25°C) using a Teflon (trademark) homogenizer, 15 strokes at 500 rpm. […] The radioactivity on the filters was counted with a LKB gamma counter.
Drug displacement studies were performed with at least 10 concentrations of compounds of Formula I and the IC₅₀ values were determined by regression analysis IC₅₀ refers to the concentration of the compound required to inhibit 50% of specific binding of ¹²⁵I-CCK-8.

Cc1cccc(NC(=O)NC2N=C(C3CCCCC3)c3ccccc3N(C)C2=O)c1 (racemic) [Example 1, N-[3(R,S)-5-Cyclohexyl-2,3-dihydro-1-methyl-2-oxo-1H-1,4-benzodiazepin-3-yl] N′-[3-methylphenyl] urea]
pIC50: 8.82

Cc1cccc(NC(=O)NC2N=C(C3CCCCC3)c3ccccc3N(C)C2=O)c1 (single isomer, unassigned) [7 (Peak A)]
pIC50: 5.77
